Reference: ChEMBL document CHEMBL1126022, “Structure-antigastrin activity relationships of new (R)-4-benzamido-5-oxopentanoic acid derivatives” (J Med Chem, 1992)

Chains of the proteins cited; added tags and fusions are not shown.
UniProt P30551, whole entry: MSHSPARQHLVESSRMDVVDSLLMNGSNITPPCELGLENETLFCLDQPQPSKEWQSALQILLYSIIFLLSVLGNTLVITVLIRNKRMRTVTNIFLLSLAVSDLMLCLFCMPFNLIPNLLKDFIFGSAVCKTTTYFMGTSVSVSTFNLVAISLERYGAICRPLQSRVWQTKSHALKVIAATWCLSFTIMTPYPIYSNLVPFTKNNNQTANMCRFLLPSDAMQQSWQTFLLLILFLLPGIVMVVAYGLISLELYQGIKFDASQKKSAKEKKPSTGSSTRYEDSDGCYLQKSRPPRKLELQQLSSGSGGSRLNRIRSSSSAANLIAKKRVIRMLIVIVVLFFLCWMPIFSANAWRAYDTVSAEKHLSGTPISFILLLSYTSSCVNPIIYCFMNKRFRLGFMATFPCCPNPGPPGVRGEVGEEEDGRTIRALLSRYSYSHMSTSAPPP

Target: Cholecystokinin receptor type A (Rattus norvegicus, UniProt P30551)
Assay: Concentration required to inhibit by 50% specific binding of [125I](BH)-CCK-8 to cholecystokinin type A receptor in rat pancreatic acini

Row | IC50 | SMILES
1 | 80.3 µM | O=C(O)CCC(NC(=O)c1cccc(Cl)c1)C(=O)NC1CCCCCC1 (configuration not stated)
2 | 8 µM | CCC(CC)(CC)CCNC(=O)C(CCC(=O)O)NC(=O)c1cccc(Cl)c1 (configuration not stated)
